In the test the target is BTK (Homo sapiens (Human), UniProt Q06187). As to the kind of experiment: In Vitro BTK Kinase Assay: Btk-PolyGAT-LS Assay. The test is classed as biochemical. Conditions: active BTK enzyme 0.25 nM, ATP 10 μM, polyGAT 100 nM, 30 minutes.

Protein sequences, listed by entry. Tags and fused reporters are not part of them.
UniProt Q06187, whole entry: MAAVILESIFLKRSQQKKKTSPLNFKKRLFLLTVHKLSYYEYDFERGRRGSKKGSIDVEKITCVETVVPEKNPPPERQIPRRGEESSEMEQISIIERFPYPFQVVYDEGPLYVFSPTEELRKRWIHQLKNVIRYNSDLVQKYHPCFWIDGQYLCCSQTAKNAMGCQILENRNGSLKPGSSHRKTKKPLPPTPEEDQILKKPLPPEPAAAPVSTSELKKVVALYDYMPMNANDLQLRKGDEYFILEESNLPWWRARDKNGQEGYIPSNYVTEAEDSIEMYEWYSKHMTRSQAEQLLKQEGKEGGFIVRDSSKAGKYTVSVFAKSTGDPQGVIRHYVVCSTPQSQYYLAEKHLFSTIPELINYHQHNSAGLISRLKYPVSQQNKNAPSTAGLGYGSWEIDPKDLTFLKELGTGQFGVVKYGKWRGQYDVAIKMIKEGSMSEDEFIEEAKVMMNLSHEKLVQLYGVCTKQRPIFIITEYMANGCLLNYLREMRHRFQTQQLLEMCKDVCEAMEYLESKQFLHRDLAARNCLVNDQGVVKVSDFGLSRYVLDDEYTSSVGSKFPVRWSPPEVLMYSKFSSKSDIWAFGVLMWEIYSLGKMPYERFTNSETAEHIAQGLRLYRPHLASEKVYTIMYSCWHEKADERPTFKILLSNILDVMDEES

From patent US12391697B2, “Condensed bi-heterocycles as inhibiting agents for Bruton's tyrosine kinase” (BIOGEN MA INC., priority 2019, dated 2025) come the findings set out here.

A word on the IC50: it is the point on the concentration scale where inhibition reaches its midpoint.

As for `Cc1cc(-c2ncnn3cc(-c4cn(C)cn4)cc23)ccc1CNC(=O)c1noc(C(C)(C)C)n1`, the IC50 (tested form: TFA) was under 1 nM.
Where the note is “tested form: TFA”, `COC1CN(c2cc3c(-c4ccc(CNC(=O)c5nc(C(C)(C)C)no5)c(C)c4)ncnn3c2)CC1OC` (stereo not drawn) came in with a concentration for half-maximal inhibition (IC50) of 1 to 10 nM.
`Cc1c(CNC(=O)c2noc(C(C)(C)C)n2)ccc(-c2ccnc3cc(-c4cnn(C)c4)nn23)c1F` gave an IC50 of 1 to 10 nM.
